The list shows a part of the results, in another mix than the full data. Some of these compounds have results that are not shown, active ones among them. Activity calls are given as the source filed them.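 Rule for the calls: active = activation above a cutoff set at the mean activation of all tested compounds plus 3 SD (cut at about 54% in these data); inactive = the rest, inconclusive results apart.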
Biological target: Sphingosine 1-phosphate receptor 1 (Homo sapiens) (UniProt P21453)
Experiment: activation or potentiation of human S1P1 signaling – cell-based, primary and confirmation screens, CRE-bla reporter, primary screen (AID 449);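 note: forskolin at 4 µM as EC80 and the EC20 agonist is SEW2871; 100% = SEW2871 at its EC100 plus forskolin at EC80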
Details: S1P1 CRE-bla cells, forskolin, beta-lactamase FRET, potentiator mode; at 9.5 µM; stronger effect = higher value; 100% = saturating reference agonist, 0% = basal; S1P1 agonist co-added at EC20, 2 nM

Chains of the proteins cited; added tags and fusions are not shown.
UniProt P21453, whole entry: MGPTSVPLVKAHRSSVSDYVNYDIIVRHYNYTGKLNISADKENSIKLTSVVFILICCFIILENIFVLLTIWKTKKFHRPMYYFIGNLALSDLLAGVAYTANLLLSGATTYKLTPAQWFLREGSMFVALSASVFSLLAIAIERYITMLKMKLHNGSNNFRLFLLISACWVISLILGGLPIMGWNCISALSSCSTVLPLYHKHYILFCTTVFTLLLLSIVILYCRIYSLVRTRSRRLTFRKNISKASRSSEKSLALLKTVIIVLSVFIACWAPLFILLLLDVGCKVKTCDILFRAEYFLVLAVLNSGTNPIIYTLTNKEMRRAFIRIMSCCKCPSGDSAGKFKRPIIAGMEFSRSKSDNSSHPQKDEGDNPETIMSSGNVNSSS

Question: `O=C(OC1CN2CCC1CC2)C(CO)(c1ccccc1)c1ccccc1` (configuration not stated) was tested. Which activation did it give?
Answer: inactive: -8.2%

Question: `CN(C)c1cccc(C(=O)NCC2(N(C)C)CCCCC2)c1` was tested. Which activation did it give?
Answer: inactive: -3.1%
